Reference: PubChem BioAssay (NCI)
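Cells were grown in 96-well plates and exposed to each compound for 48 hours at five concentrations; endpoints were interpolated linearly between bracketing concentrations, or set to the highest concentration if not reached. At the GI50, growth is halved. At the TGI there is no net growth.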

Assays:
Experiment in all cases: NCI-60 cell line screen, 48 h
U251 CNS = tested on: U251 CNS
COLO 205 colon = tested on: COLO 205 colon
DLD-1 colon = tested on: DLD-1 colon
DMS 114 small cell lung = tested on: DMS 114 small cell lung
HCC-2998 colon = tested on: HCC-2998 colon
DMS 273 small cell lung = tested on: DMS 273 small cell lung
SK-MEL-28 melanoma = tested on: SK-MEL-28 melanoma
SK-OV-3 ovarian = tested on: SK-OV-3 ovarian
MALME-3M melanoma = tested on: MALME-3M melanoma
RXF 393 renal = tested on: RXF 393 renal
M14 melanoma = tested on: M14 melanoma
K-562 leukemia = tested on: K-562 leukemia
CCRF-CEM leukemia = tested on: CCRF-CEM leukemia
RPMI-8226 leukemia = tested on: RPMI-8226 leukemia
KM20L2 colon = tested on: KM20L2 colon
HOP-92 NSCLC = tested on: HOP-92 NSCLC
MOLT-4 leukemia = tested on: MOLT-4 leukemia
SN12C renal = tested on: SN12C renal
ACHN renal = tested on: ACHN renal
SF-295 CNS = tested on: SF-295 CNS
NCI-H322M lung = tested on: NCI-H322M lung
OVCAR-8 ovarian = tested on: OVCAR-8 ovarian
OVCAR-4 ovarian = tested on: OVCAR-4 ovarian
A549 NSCLC = tested on: A549 NSCLC
SW-620 colon = tested on: SW-620 colon
SK-MEL-5 melanoma = tested on: SK-MEL-5 melanoma
UACC-62 melanoma = tested on: UACC-62 melanoma
HOP-62 NSCLC = tested on: HOP-62 NSCLC
LXFL 529 NSCLC = tested on: LXFL 529 NSCLC
HT29 colon = tested on: HT29 colon
SNB-19 CNS = tested on: SNB-19 CNS
HCT-15 colon = tested on: HCT-15 colon
UACC-257 melanoma = tested on: UACC-257 melanoma
OVCAR-3 ovarian = tested on: OVCAR-3 ovarian
SF-268 CNS = tested on: SF-268 CNS
M19-MEL melanoma = tested on: M19-MEL melanoma
IGROV1 ovarian = tested on: IGROV1 ovarian
HOP-18 NSCLC = tested on: HOP-18 NSCLC
TK-10 renal = tested on: TK-10 renal
KM12 colon = tested on: KM12 colon
SF-539 CNS = tested on: SF-539 CNS
A498 renal = tested on: A498 renal
EKVX NSCLC = tested on: EKVX NSCLC
786-0 renal = tested on: 786-0 renal
XF 498 CNS = tested on: XF 498 CNS
SNB-78 CNS = tested on: SNB-78 CNS
HL-60(TB) leukemia = tested on: HL-60(TB) leukemia
NCI-H23 lung = tested on: NCI-H23 lung
OVCAR-5 ovarian = tested on: OVCAR-5 ovarian
HCT-116 colon = tested on: HCT-116 colon
NCI-H460 lung = tested on: NCI-H460 lung
SK-MEL-2 melanoma = tested on: SK-MEL-2 melanoma
SNB-75 CNS = tested on: SNB-75 CNS
CAKI-1 renal = tested on: CAKI-1 renal
MDA-N = tested on: MDA-N
MDA-MB-231 breast = tested on: MDA-MB-231 breast
DU-145 prostate = tested on: DU-145 prostate
MDA-MB-435 = tested on: MDA-MB-435
T-47D breast = tested on: T-47D breast
NCI/ADR-RES ovarian = tested on: NCI/ADR-RES ovarian
UO-31 renal = tested on: UO-31 renal
NCI-H522 lung = tested on: NCI-H522 lung
PC-3 prostate = tested on: PC-3 prostate
NCI-H226 lung = tested on: NCI-H226 lung
LOX IMVI melanoma = tested on: LOX IMVI melanoma
MCF7 breast = tested on: MCF7 breast
HS 578T breast = tested on: HS 578T breast
SR leukemia = tested on: SR leukemia

## O=[N+]([O-])C12C3C4C1C1CC4C4([N+](=O)[O-])C3CC2C14[N+](=O)[O-] (configuration not stated)
U251 CNS
  GI50: > 100 µM
  TGI: > 100 µM
COLO 205 colon
  GI50: > 100 µM
  TGI: > 100 µM
DLD-1 colon
  GI50: > 100 µM
  TGI: > 100 µM
DMS 114 small cell lung
  GI50: > 100 µM
  TGI: > 100 µM
HCC-2998 colon
  GI50: > 100 µM
  TGI: > 100 µM
DMS 273 small cell lung
  GI50: > 100 µM
  TGI: > 100 µM
SK-MEL-28 melanoma
  GI50: > 100 µM
  TGI: > 100 µM
SK-OV-3 ovarian
  GI50: > 100 µM
  TGI: > 100 µM
MALME-3M melanoma
  GI50: > 100 µM
  TGI: > 100 µM
RXF 393 renal
  GI50: > 100 µM
  TGI: > 100 µM
M14 melanoma
  GI50: > 100 µM
  TGI: > 100 µM
K-562 leukemia
  GI50: > 100 µM
  TGI: > 100 µM
CCRF-CEM leukemia
  GI50: > 100 µM
  TGI: > 100 µM
RPMI-8226 leukemia
  GI50: > 100 µM
  TGI: > 100 µM
KM20L2 colon
  GI50: > 100 µM
  TGI: > 100 µM
HOP-92 NSCLC
  GI50: > 100 µM
  TGI: > 100 µM
MOLT-4 leukemia
  GI50: > 100 µM
  TGI: > 100 µM
SN12C renal
  GI50: > 100 µM
  TGI: > 100 µM
ACHN renal
  GI50: > 100 µM
  TGI: > 100 µM
SF-295 CNS
  GI50: > 100 µM
  TGI: > 100 µM
NCI-H322M lung
  GI50: > 100 µM
  TGI: > 100 µM
OVCAR-8 ovarian
  GI50: > 100 µM
  TGI: > 100 µM
OVCAR-4 ovarian
  GI50: > 100 µM
  TGI: > 100 µM
A549 NSCLC
  GI50: > 100 µM
  TGI: > 100 µM
SW-620 colon
  GI50: > 100 µM
  TGI: > 100 µM
SK-MEL-5 melanoma
  GI50: > 100 µM
  TGI: > 100 µM
UACC-62 melanoma
  GI50: > 100 µM
  TGI: > 100 µM
HOP-62 NSCLC
  GI50: > 100 µM
  TGI: > 100 µM
LXFL 529 NSCLC
  GI50: > 100 µM
  TGI: > 100 µM
HT29 colon
  GI50: > 100 µM
  TGI: > 100 µM
SNB-19 CNS
  GI50: > 100 µM
  TGI: > 100 µM
HCT-15 colon
  GI50: > 100 µM
  TGI: > 100 µM
UACC-257 melanoma
  GI50: > 100 µM
  TGI: > 100 µM
OVCAR-3 ovarian
  GI50: > 100 µM
  TGI: > 100 µM
SF-268 CNS
  GI50: > 100 µM
  TGI: > 100 µM
M19-MEL melanoma
  GI50: > 100 µM
  TGI: > 100 µM
IGROV1 ovarian
  GI50: > 100 µM
  TGI: > 100 µM
HOP-18 NSCLC
  GI50: > 100 µM
  TGI: > 100 µM
TK-10 renal
  GI50: > 100 µM
  TGI: > 100 µM
KM12 colon
  GI50: > 100 µM
  TGI: > 100 µM
SF-539 CNS
  GI50: > 100 µM
  TGI: > 100 µM
A498 renal
  GI50: > 100 µM
  TGI: > 100 µM
EKVX NSCLC
  GI50: > 100 µM
  TGI: > 100 µM
786-0 renal
  GI50: > 100 µM
  TGI: > 100 µM
XF 498 CNS
  GI50: > 100 µM
  TGI: > 100 µM
SNB-78 CNS
  GI50: > 100 µM
  TGI: > 100 µM
HL-60(TB) leukemia
  GI50: > 100 µM
  TGI: > 100 µM
NCI-H23 lung
  GI50: > 100 µM
  TGI: > 100 µM
OVCAR-5 ovarian
  GI50: > 100 µM
  TGI: > 100 µM
HCT-116 colon
  GI50: > 100 µM
  TGI: > 100 µM
NCI-H460 lung
  GI50: > 100 µM
  TGI: > 100 µM
SK-MEL-2 melanoma
  GI50: > 100 µM
  TGI: > 100 µM
SNB-75 CNS
  GI50: > 100 µM
  TGI: > 100 µM
CAKI-1 renal
  GI50: > 100 µM
  TGI: > 100 µM

## COc1ccc2c3c1OC1[C@@]4(OC)CCC5(CC4C(C)=O)[C@@H](C2)N(C)CC[C@]315 (some centres not stated)
U251 CNS
  TGI: > 100 µM
MDA-N
  TGI: > 100 µM
MDA-MB-231 breast
  TGI: > 100 µM
COLO 205 colon
  TGI: > 100 µM
HCC-2998 colon
  TGI: > 100 µM
SK-MEL-28 melanoma
  TGI: > 100 µM
SK-OV-3 ovarian
  TGI: > 100 µM
MALME-3M melanoma
  TGI: > 100 µM
RXF 393 renal
  TGI: > 100 µM
DU-145 prostate
  TGI: > 100 µM
MDA-MB-435
  TGI: > 100 µM
M14 melanoma
  TGI: > 100 µM
K-562 leukemia
  TGI: > 100 µM
CCRF-CEM leukemia
  TGI: > 100 µM
RPMI-8226 leukemia
  TGI: > 100 µM
HOP-92 NSCLC
  TGI: > 100 µM
T-47D breast
  TGI: > 100 µM
MOLT-4 leukemia
  TGI: > 100 µM
SN12C renal
  TGI: > 100 µM
ACHN renal
  TGI: > 100 µM
SF-295 CNS
  TGI: > 100 µM
NCI-H322M lung
  TGI: > 100 µM
OVCAR-8 ovarian
  TGI: > 100 µM
NCI/ADR-RES ovarian
  TGI: > 100 µM
OVCAR-4 ovarian
  TGI: > 100 µM
A549 NSCLC
  TGI: > 100 µM
SW-620 colon
  TGI: > 100 µM
UO-31 renal
  TGI: > 100 µM
SK-MEL-5 melanoma
  TGI: > 100 µM
NCI-H522 lung
  TGI: > 100 µM
UACC-62 melanoma
  TGI: > 100 µM
HOP-62 NSCLC
  TGI: > 100 µM
HT29 colon
  TGI: > 100 µM
SNB-19 CNS
  TGI: > 100 µM
PC-3 prostate
  TGI: > 100 µM
NCI-H226 lung
  TGI: > 100 µM
LOX IMVI melanoma
  TGI: > 100 µM
HCT-15 colon
  TGI: > 100 µM
UACC-257 melanoma
  TGI: > 100 µM
OVCAR-3 ovarian
  TGI: > 100 µM
SF-268 CNS
  TGI: > 100 µM
IGROV1 ovarian
  TGI: > 100 µM
TK-10 renal
  TGI: > 100 µM
KM12 colon
  TGI: > 100 µM
SF-539 CNS
  TGI: > 100 µM
MCF7 breast
  TGI: > 100 µM
A498 renal
  TGI: > 100 µM
EKVX NSCLC
  TGI: > 100 µM
786-0 renal
  TGI: > 100 µM
HS 578T breast
  TGI: > 100 µM
SR leukemia
  TGI: > 100 µM
HL-60(TB) leukemia
  TGI: > 100 µM
NCI-H23 lung
  TGI: > 100 µM
OVCAR-5 ovarian
  TGI: > 100 µM
HCT-116 colon
  TGI: > 100 µM
NCI-H460 lung
  TGI: > 100 µM
SK-MEL-2 melanoma
  TGI: > 100 µM
SNB-75 CNS
  TGI: > 100 µM
CAKI-1 renal
  TGI: > 100 µM
